Measured values taken from patent US20250368667A1, “USP1 INHIBITOR” (Shanghai Qilu Pharmaceutical Research and Development …, priority 2022, published 2025).

Amino acid sequences for entries named in this document (tags omitted).
UniProt O94782, whole entry: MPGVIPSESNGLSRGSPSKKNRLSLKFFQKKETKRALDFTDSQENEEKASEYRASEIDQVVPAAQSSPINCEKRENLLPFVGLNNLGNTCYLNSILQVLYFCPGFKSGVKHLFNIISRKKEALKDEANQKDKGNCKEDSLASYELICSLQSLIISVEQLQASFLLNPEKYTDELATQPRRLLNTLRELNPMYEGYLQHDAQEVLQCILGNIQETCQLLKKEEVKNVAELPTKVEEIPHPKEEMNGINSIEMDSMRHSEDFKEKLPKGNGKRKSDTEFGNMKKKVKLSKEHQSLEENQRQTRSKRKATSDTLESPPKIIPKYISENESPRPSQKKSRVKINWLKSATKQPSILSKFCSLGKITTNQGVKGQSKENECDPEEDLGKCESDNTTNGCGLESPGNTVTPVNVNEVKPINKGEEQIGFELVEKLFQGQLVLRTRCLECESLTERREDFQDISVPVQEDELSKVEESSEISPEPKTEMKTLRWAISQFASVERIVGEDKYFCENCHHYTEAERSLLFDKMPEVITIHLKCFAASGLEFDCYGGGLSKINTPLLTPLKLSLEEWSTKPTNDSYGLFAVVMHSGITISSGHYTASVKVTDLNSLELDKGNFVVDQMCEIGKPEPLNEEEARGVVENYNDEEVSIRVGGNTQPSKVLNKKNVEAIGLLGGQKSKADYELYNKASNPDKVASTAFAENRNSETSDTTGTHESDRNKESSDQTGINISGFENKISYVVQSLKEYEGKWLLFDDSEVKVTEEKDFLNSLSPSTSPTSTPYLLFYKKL
UniProt Q8TAF3, whole entry partner: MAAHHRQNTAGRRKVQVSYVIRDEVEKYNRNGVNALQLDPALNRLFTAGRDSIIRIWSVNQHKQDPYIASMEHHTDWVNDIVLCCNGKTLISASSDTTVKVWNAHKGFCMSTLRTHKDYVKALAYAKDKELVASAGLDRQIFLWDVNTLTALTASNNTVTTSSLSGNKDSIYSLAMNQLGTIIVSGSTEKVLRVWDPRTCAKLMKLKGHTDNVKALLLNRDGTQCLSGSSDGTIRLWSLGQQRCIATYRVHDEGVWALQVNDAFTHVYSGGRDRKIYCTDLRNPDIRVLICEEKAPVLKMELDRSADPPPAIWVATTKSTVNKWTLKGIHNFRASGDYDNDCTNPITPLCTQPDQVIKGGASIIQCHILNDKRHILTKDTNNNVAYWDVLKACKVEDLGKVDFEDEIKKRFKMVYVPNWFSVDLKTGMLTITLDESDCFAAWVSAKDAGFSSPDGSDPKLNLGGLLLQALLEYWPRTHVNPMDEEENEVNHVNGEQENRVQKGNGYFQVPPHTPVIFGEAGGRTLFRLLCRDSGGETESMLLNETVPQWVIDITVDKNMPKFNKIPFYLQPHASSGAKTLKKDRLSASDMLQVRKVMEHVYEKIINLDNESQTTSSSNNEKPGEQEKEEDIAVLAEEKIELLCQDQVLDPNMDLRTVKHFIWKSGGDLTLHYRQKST

Biological target: recombinant human His6-USP1/His6-UAF1 composite protein (Homo sapiens (Human), UniProt O94782)
Experiment: USP1 enzyme activity detection (Ub-Rho fluorescence)
Format: biochemical
Conditions: read-out: IC50 (enzymatic inhibition of USP1); USP1/UAF1, Ub-Rho substrate 300 nM, 1 hour pre-incubation

| Structure (SMILES) | IC50 [nM] |
| --- | --- |
| COc1ncnc(C2CC2)c1-c1ncc2c3ccc(C(F)(F)F)cc3n(Cc3ccc(-n4nc(C(F)(F)F)cc4C)cc3)c2n1 | 245 |
| COc1nccc(C2CC2)c1-c1ncc2c3ccncc3n(Cc3ccc(-c4nc(C(F)(F)F)cn4C(C)C)cc3)c2n1 | 138 |
| COc1ncnc(C2CC2)c1-c1ncc2c3ccc(OCCN)nc3n(Cc3ccc4c(c3)CCCn3cc(C(F)(F)F)nc3-4)c2n1 | 1.26 |
